Compounds with a hit are over-represented: about 13% of the library has one in this group of screens.
miR-21 FLuc: miR-21 reporter, rising signal | HeLa miR-21 FLuc reporter, luciferase, 48 h | Potency, µM (top dose mostly 38.3 µM) | 340,000 tested, under 10 active | AID 2288; active = well fitted rising curve with a large enough effect; inconclusive = small, poorly fitted or top-dose-only effect; inactive = no such curve, though single readings can be large or run the other way;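 note: miR-21 action dims this reporter so a rising signal means less miR-21 action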
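HeLa cells stably expressing CMV-driven firefly luciferase with a downstream miR-21 binding sequence, endogenously expressing miR-21, were treated with titrations (up to about 40uM final) for 48 hours at 37 degree Celsius. Luciferase luminescence was read after lysis.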
Lamin A splicing: LMNA splicing modulation | HeLa LMNA splicing GFP/RFP minigene ratio, 48 h | Potency, µM (titrated, usually from 46.1 µM), actives largely listed as inhibitors | actives 0.01% (n = 200,000); active = well fitted inhibition curve with a large enough effect in the signal ratio, with a control signal flat, not every such curve was filed as active; inconclusive = small, poorly fitted or top-dose-only effect, or effect the other way, or a change in a side signal; the % refers to the signal ratio
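Read-out is the ratio of GFP to DsRed2 object intensity, acquired by 488 nm laser-scanning cytometry on HeLa lamin A-EGFP minigene reporter cells. Compound incubation 48 hrs at 37 °C in Opti-MEM with 2% FBS; DMSO 0.5% final.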
G9a inh: inhibitors of human histone lysine methyltransferase G9a | actives 8.8% (n = 350,000) | Potency, µM (highest dose often 102 µM), hits mostly inhibitors | Q96KQ7 | AID 504332 | G9a H3K9 monomethylation, AlphaScreen, 2 h; note: nearly all actives have a fitted effect of over 75% in size
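AlphaScreen read-out: biotin-H3K9 peptide (500 nM) methylation by 20 nM enzyme with 20 uM SAM, 2 h at room temperature after 15 min compound preincubation; anti-monomethyl H3K9 antibody plus donor/acceptor beads, 10 min dark.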
Sfp PPTase inh: Sfp phosphopantetheinyl transferase inhibition; Potency, µM, most hits filed as inhibitors; Biochemical Sfp PPTase activity, qHTS; AID 1490; actives 3.5% (n = 310,000);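 note: the enzyme is Sfp with the accession as filed and its product quenches rhodamine fluorescence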
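With Hepes-Na pH 7.6 buffer containing 10 mM MgCl2, Sfp (15 nM) modified BHQ-2-YbbR (12.5 uM) using rhodamine-CoA (5 uM). Two reads 30 minutes apart at 525/598 nm yielded each well's rate.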
JMJD2E inh: inhibitors of human JMJD2E histone demethylase; B2RXH2; JMJD2E catalytic domain, FDH-coupled NADH fluorescence (FDH is formaldehyde dehydrogenase); Potency, µM (titrated, usually from 57.1 µM), hits mostly inhibitors; actives 1.6% (n = 230,000); AID 2147; active = well fitted inhibition curve with a large enough effect, not every such curve was filed as active; inconclusive = small, poorly fitted or top-dose-only effect, or another doubt; inactive = no such curve, though single readings can be large or run the other way; note: nearly all actives have a fitted effect of over 50% in size
ALDH1A1 block: ALDH1A1 (human) enzyme inhibition | P00352 | Purified ALDH1A1, NADH fluorescence, propionaldehyde substrate | Potency, µM (series often up to 75.3 µM), actives largely listed as inhibitors | actives 7.3% (n = 220,000); active = well fitted inhibition curve with a large enough effect, not every such curve was filed as active; inconclusive = small, poorly fitted or top-dose-only effect, or another doubt; inactive = no such curve, though single readings can be large or run the other way
Each line names hits and unclear results; the compound was inactive in the other large screens. Unless noted, calls come from the whole dose curve; as a rule, active = well fitted curve in the direction sought with a large enough effect; inconclusive = small, poorly fitted or top-dose-only effect, or another doubt; inactive = no such curve, though single readings can be large; an effect the other way counts as inactive or inconclusive.

CCN(CCNCC(O)COCc1ccc(Cl)cc1)c1cccc(C)c1 (stereo unspecified)	G9a inh 7.9µM, Sfp PPTase inh 10µM, JMJD2E inh inconclusive, ALDH1A1 block inconclusive
CCOC(=O)C1CCN(CC(O)COCc2ccc(Cl)cc2)CC1 (stereo unspecified)	none (no result: Lamin A splicing, JMJD2E inh, ALDH1A1 block)
COC(=O)c1cc2oc3ccccc3c2n1Cc1nc(-c2cccc(Cl)c2)oc1C	none (no result: Lamin A splicing, Sfp PPTase inh, JMJD2E inh, ALDH1A1 block)
O=[N+]([O-])c1ccc(C2Oc3ccccc3C3CC(c4ccccc4)=NN32)s1 (stereo unspecified)	Lamin A splicing inconclusive, G9a inh 10µM, JMJD2E inh inconclusive, ALDH1A1 block inconclusive
c1ccc(C2Oc3ccccc3C3CC(c4cccs4)=NN32)cc1 (stereo unspecified)	Lamin A splicing inconclusive, ALDH1A1 block 13µM
S=C(NCC1CCCO1)c1ccc(Br)cc1 (stereo unspecified)	G9a inh 8.9µM, Sfp PPTase inh 20µM (no result: Lamin A splicing, JMJD2E inh, ALDH1A1 block)
Cc1ccc(C(=O)NC(=S)NCC2CCCO2)cc1[N+](=O)[O-] (stereo unspecified)	G9a inh inconclusive, ALDH1A1 block 14µM
S=C(NCC1CCCO1)NC1CCCCC1 (stereo unspecified)	G9a inh 50µM, Sfp PPTase inh 11µM (no result: Lamin A splicing)
O=C(NCC1CCCO1)C1CCCN1C(=O)NC1CCCCC1 (stereo unspecified)	none
CC(C)(C)c1ccc(C(=O)NC(=S)NCC2CCCO2)cc1 (stereo unspecified)	Lamin A splicing inconclusive, G9a inh 40µM, ALDH1A1 block inconclusive
O=C(Cc1ccc(S(=O)(=O)N2CCOCC2)s1)OCc1ccc(Cl)cc1	none (no result: miR-21 FLuc, Lamin A splicing, Sfp PPTase inh, JMJD2E inh, ALDH1A1 block)
CCOC(=O)C1Cc2cc3c(cc2C1=O)CC(C(=O)OCC)C3=O (stereo unspecified)	G9a inh 35µM, JMJD2E inh inconclusive, ALDH1A1 block inconclusive
Cc1ccc(-c2cnc(-c3ccccc3C(=O)O)o2)cc1	G9a inh 50µM (no result: Lamin A splicing, JMJD2E inh, ALDH1A1 block)
Oc1ccc(C=NC2CCCCC2)c(O)c1	G9a inh inconclusive, ALDH1A1 block inconclusive (no result: Lamin A splicing)
CCOC(=O)C1=C(C)Nc2ccc(C)cc2S1	G9a inh inconclusive, Sfp PPTase inh 50µM
CSCCOC(=O)C1=C(C)Nc2ccc(C)cc2S1	G9a inh 25µM, Sfp PPTase inh 50µM, ALDH1A1 block 14µM
CCOCCOC(=O)C1=C(C)Nc2ccc(C)cc2S1	G9a inh 16µM, Sfp PPTase inh inconclusive, ALDH1A1 block inconclusive
CCOC(=O)C1=C(C)Nc2ccccc2S1	Sfp PPTase inh 50µM (no result: Lamin A splicing, G9a inh, ALDH1A1 block)
COCCn1c(=O)c(-c2ccccc2)nc2cnc(Nc3cccc(OC)c3)nc21	Lamin A splicing inconclusive (no result: miR-21 FLuc, JMJD2E inh)
CCOC(=O)C1=C(NC(=S)NC(=O)c2ccccc2)c2ccccc2CC1C(C)C (stereo unspecified)	Lamin A splicing inconclusive, G9a inh inconclusive, ALDH1A1 block 15µM
CCOC(=O)C1=C(NC(=S)NC(=O)c2ccccc2)c2ccccc2CC1(C)CC (stereo unspecified)	Lamin A splicing inconclusive, G9a inh inconclusive, ALDH1A1 block 13µM
Cc1ccc(N=C2S/C(=C\c3cn(CC(=O)O)c4ccccc34)C(=O)N2C)cc1	Lamin A splicing inconclusive, G9a inh 79µM, ALDH1A1 block inconclusive
CCN=C1S/C(=C\c2cn(CC)c3ccccc23)C(=O)N1CC	Lamin A splicing inconclusive, Sfp PPTase inh inconclusive, ALDH1A1 block inconclusive
CCOc1nc(-c2ccccc2)ccc1-c1noc(-c2ccc(C)cc2)n1	none (no result: Lamin A splicing, Sfp PPTase inh, JMJD2E inh, ALDH1A1 block)
CCOc1nc(-c2ccc(C)cc2)ccc1-c1noc(-c2cccnc2)n1	JMJD2E inh 4.5µM, ALDH1A1 block inconclusive
COc1ccc(N=C2NC(=O)C(CC(=O)NCCc3ccc(OC)c(OC)c3)S2)cc1 (stereo unspecified)	ALDH1A1 block 11µM
COc1ccc(OC)c(NC(=O)CC2SC(=NCc3ccccc3)NC2=O)c1 (stereo unspecified)	Lamin A splicing inconclusive, G9a inh inconclusive, ALDH1A1 block 40µM
Cc1ccc(N=C2NC(=O)C(CC(=O)NCc3ccccc3)S2)cc1C (stereo unspecified)	Lamin A splicing inconclusive, ALDH1A1 block 25µM
COc1ccc(NC(=O)CC2SC(=Nc3ccccc3)NC2=O)c(OC)c1 (stereo unspecified)	none

Screening results (PubChem)
